This note sets out measurements from patent US20150011566A1, “N-PHENYLPIPERAZINE DERIVATIVES THAT ARE ANTAGONISTS OF A1A, A1D ADRENOCEPTORS AND 5-HT1A RECEPTORS FOR THE TREATMENT OF BENIGN PROSTATE HYPERPLASIA, PHARMACEUTICAL COMPOSITIONS CONTAINING THE SAME” (UNIVERSIDADE FEDERAL DO RIO DE JANEIRO-UFRJ, priority 2012, published 2015).

Chains of the proteins cited; added tags and fusions are not shown.
UniProt P15823, whole entry: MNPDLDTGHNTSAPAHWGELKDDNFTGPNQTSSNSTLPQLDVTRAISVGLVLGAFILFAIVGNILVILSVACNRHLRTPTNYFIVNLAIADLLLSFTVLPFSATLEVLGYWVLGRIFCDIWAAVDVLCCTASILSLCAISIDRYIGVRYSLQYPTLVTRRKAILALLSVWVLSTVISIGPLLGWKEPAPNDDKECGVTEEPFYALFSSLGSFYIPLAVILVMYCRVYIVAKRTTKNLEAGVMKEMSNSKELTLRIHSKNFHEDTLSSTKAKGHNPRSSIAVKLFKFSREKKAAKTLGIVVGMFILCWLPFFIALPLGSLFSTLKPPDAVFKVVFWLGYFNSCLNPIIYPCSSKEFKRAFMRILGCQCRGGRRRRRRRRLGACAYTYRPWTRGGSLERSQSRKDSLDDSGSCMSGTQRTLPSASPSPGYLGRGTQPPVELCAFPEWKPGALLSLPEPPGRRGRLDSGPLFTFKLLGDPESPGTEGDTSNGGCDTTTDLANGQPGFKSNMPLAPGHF

The target in one assay is T1, α1B adrenoceptors (Rattus norvegicus, UniProt P15823).
T1 construct: from tissue; host or cells: rat liver membranes
Nature of the assay: Binding of [3H]-prazosin to α1B adrenoceptors (rat liver membranes). Particulars: saturation assay, one site. As for the experimental part:
Following the protocol described previously in the literature membrane preparations from rat liver homogenates were obtained. Such membrane preparations are enriched in the adrenoceptor subtype α1B. The tissues obtained as described above (4 Rat livers corresponding to ˜30 g) were thawed and homogenized perforated similarly performed for rabbit liver. The homogenate obtained was filtered through four layers of gauze and then subjected to centrifugation 5,000×g for 20 minutes at 4° C., yielding a supernatant which was subsequently ultracentrifuged at 100,000×g for 60 minutes at 4° C., obtaining a pellet. This pellet was resuspended in buffer free of NaCl and subjected to a further […] under the same conditions.
Binding assays were standardized for α1B adrenoceptors in the same way adrenoceptor binding assays for α1A according to the literature, i.e. saturation and competition assays were performed on membrane preparations from rat liver, in this case using […] protein per tube contained […] suspension, in addition to various concentrations of LDT's (10^−9-10^−6 M).

Another assay addresses T2, α1A adrenoceptors (Oryctolagus cuniculus, UniProt O02824).
T2 construct: from tissue; host or cells: rabbit liver membranes
T2 sequence (O02824 1-466): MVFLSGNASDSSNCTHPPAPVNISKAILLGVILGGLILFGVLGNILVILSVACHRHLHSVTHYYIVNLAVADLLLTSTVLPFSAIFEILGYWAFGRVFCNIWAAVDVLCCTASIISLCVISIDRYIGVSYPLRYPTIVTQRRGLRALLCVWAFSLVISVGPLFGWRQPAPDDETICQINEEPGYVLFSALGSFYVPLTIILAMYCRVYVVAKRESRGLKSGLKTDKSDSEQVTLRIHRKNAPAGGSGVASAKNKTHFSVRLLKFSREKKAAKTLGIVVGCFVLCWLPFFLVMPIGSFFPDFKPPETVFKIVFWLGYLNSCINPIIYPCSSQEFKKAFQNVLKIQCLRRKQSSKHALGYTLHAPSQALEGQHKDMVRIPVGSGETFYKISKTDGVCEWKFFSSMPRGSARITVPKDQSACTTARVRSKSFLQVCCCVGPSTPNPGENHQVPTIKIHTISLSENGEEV
Nature of the assay: Binding of [3H]-prazosin to α1A adrenoceptors (rabbit liver membranes). Particulars: saturation assay. As for the experimental part: Following the protocol described previously in the literature, membrane preparations from rabbit liver homogenates were obtained. Such membrane preparations are enriched in adrenoceptor subtype α1A. The tissue obtained as described above (˜30 g) was naturally thawed, immersed in thawing solution (0.25 M sucrose, 1 mM EGTA and 5 mM Tris (pH 7.4)) freezing. Then, the tissue was transferred to a petri dish on ice containing solution for homogenizing liver (2 mM EDTA, 100 mM NaCl and 50 mM Tris (pH 7.4)) freezing. The liver was then carefully cut by ignoring the most fibrous part.
Then, the material was transferred into a beaker where with the aid of Ultra-Turrax homogenizer (speed 24,000 RPM), the tissue was homogenized with the same buffer solution at a ratio of 6 parts of the solution to 1 part material. The material was homogenized three times for 20 seconds; in the intervals the solution was allowed to stand for 1 minute on ice. […]
In both assays, membrane preparations were incubated at 0° C. for 45 minutes. […] The radioactivity retained on the filters was then determined in a liquid scintillation counter (Packard Tri-Carb 1600 TR).
This procedure aims to obtain a saturation curve with less expenditure of radioactive substances and biological materials. […] This can be seen by the gradual decrease of radioactivity retained on the filters is detected by the counter liquid scintillation. […]

Read-outs that look alike come from different tables or passages of the source.

A word on the Kd: it is the constant that tells how readily two partners part at equilibrium.

For [3H]-prazosin [reference compound], the dissociation constant (Kd) came out at 0.34 nM on α1B adrenoceptors; 0.46 nM on α1A adrenoceptors (read-out: Kd, high affinity site); 56.5 nM on α1A adrenoceptors (read-out: Kd, low affinity site).
